The assay concerns phosphorylation of SR proteins. The assay is described as follows: Western blot of nuclear extracts, phosphor-SR proteins. Particulars: HCT116 and Rh18 cells, 4 h; SD6 10 μM, compound 1 10 μM, compound 2 5 μM, compound 3 10 μM. In general terms: A western blot detects proteins with antibodies after separation by electrophoresis.

Consider PF-562271, for which the “Effect on phosphorylation of SR proteins (immunoblot)” value is “inhibited the phosphorylation of SR proteins in both HCT116 and Rh18 cells, but to a lesser extent than compound 1 or 2”.
